Measured values published in patent publication US7192973B2, “Piperidine derivatives and their use as modulators of chemokine receptor activity (especially CCR5)” (AstraZeneca AB, priority 2001, dated 2007).

The chains behind the UniProt entries cited, without tags or fusion partners.
UniProt P51681, whole entry: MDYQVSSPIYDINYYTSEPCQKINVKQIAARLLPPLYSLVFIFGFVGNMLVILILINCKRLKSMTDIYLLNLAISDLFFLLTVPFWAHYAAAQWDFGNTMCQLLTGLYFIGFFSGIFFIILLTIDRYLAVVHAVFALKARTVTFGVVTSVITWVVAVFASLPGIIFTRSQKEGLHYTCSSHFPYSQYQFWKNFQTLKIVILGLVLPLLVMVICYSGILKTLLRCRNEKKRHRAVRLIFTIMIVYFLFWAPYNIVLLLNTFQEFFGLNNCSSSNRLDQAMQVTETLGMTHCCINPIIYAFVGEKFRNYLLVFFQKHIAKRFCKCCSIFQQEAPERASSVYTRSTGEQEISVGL

What follows are compounds tested against recombinant human CCR5 receptor (Homo sapiens, UniProt P51681) (assay: in vitro radioligand binding assay: inhibition of the binding of iodinated MIP-1α). Settings: membranes from Chinese hamster ovary cells expressing CCR5; 0.1 nM iodinated MIP-1α; average if tested more than once.

Which Pic50 does the source give for `CCN(C(=O)Cc1ccc(S(C)(=O)=O)cc1)C1CCN(CCC(c2ccccc2)N2CCN(S(=O)(=O)CC)CC2)CC1` (centres unmarked) here?
The Pic50 was 7.84.

`CCN(C(=O)Cc1ccc(S(C)(=O)=O)cc1)C1CCN(CCC(c2ccccc2)N2CCN(c3ccccc3)CC2)CC1` (centres unmarked) was tested. Which Pic50 did it give?
The Pic50 was 8.3.

For `CCN(C(=O)Cc1ccc(S(C)(=O)=O)cc1)C1CCN(CCC(c2cccc(F)c2)N2CCN(c3ccc(F)cc3)CC2)CC1` (centres unmarked), which Pic50 is on record?
The Pic50 was 8.37.

With `CCN(C(=O)Cc1ccc(S(C)(=O)=O)cc1)C1CCN(CCC(c2ccccc2)N2CCN(C(=O)c3ccccc3)CC2)CC1` (centres unmarked) as the compound, how does the Pic50 read?
Its Pic50 is 7.84.

`CCN(C(=O)Cc1ccc(S(C)(=O)=O)cc1)C1CCN(CCC(c2ccccc2)N2CCC(C)CC2)CC1` (centres unmarked) was tested. Which Pic50 did it give?
The Pic50 was 6.47.

For `CCN(C(=O)Cc1ccc(S(C)(=O)=O)cc1)C1CCN(CCC(c2cccc(F)c2)C2CCN(C(=O)Nc3ccccc3)CC2)CC1` (centres unmarked), which Pic50 is on record?
Its Pic50 is 8.2.

Which Pic50 does the source give for `CCN(C(=O)Cc1ccc(S(C)(=O)=O)cc1)C1CCN(CCC(c2ccccc2)N2CCN(S(=O)(=O)c3cccs3)CC2)CC1` (centres unmarked) here?
The Pic50 was 8.63.

For `CCN(C(=O)Cc1ccc(S(C)(=O)=O)cc1)C1CCN(CCC(c2ccccc2)C2CCN(S(=O)(=O)CC)CC2)CC1` (centres unmarked), which Pic50 is on record?
Its Pic50 is 8.9.

With `CCN(C(=O)NCc1ccc(S(C)(=O)=O)cc1)C1CCN(CCC(c2ccccc2)N2CCN(S(=O)(=O)CC)CC2)CC1` (centres unmarked) as the compound, how does the Pic50 read?
Its Pic50 is 8.25.

How did the Pic50 turn out when `CCN(C(=O)Cc1ccc(S(C)(=O)=O)cc1)C1CCN(CCC(c2ccccc2)C2CCN(S(=O)(=O)c3ccccc3)CC2)CC1` (centres unmarked) was run?
The Pic50 was 9.2.

With `CCN(C(=O)Cc1ccc(S(C)(=O)=O)cc1)C1CCN(CCC(c2cccc(F)c2)C2CCN(Cc3ccncc3)CC2)CC1` (centres unmarked) as the compound, how does the Pic50 read?
Its Pic50 is 8.85.

For `CCN(C(=O)Cc1ccc(S(C)(=O)=O)cc1)C1CCN(CCC(c2ccccc2)N2CCN(S(=O)(=O)c3ccccc3)CC2)CC1` (centres unmarked), which Pic50 is on record?
The Pic50 was 8.0.

With `CCN(C(=O)Cc1ccc(S(C)(=O)=O)cc1)C1CCN(CCC(c2ccccc2)C2CCN(C(=O)c3ccc(Cl)cc3)CC2)CC1` (centres unmarked) as the compound, how does the Pic50 read?
The Pic50 was 8.78.

Which Pic50 does the source give for `CCN(C(=O)Cc1ccc(S(C)(=O)=O)cc1)C1CCN(CCC(c2ccccc2)C2CCN(Cc3ccccc3)CC2)CC1` (centres unmarked) here?
Its Pic50 is 8.05.
